One assay addresses human GLP1R (hGLP1R) (Homo sapiens, UniProt P43220). Put plainly: Human GLP1R cAMP agonist assay (GloSensor). The following applies: HEK293-SNAP-hGLP1R-GloSensor cells. The assay is classed as cell-based. The procedure: Compounds 1 to 31 were tested in the following cellular assays that measure the intracellular cAMP concentration, beta-arrestin recruitment and receptor internalization. The cAMP is generated by the activation of GLP1R. The cAMP data obtained is shown in Table 1 (where S.E.M. is included, mean n=3 independent experiments+/−S.E.M). Beta-arrestin is recruited upon activation of GLP1R and the data obtained are shown in Table 2 (mean n=2 independent experiments, +/−S.D). The extent to which the GLP1R is internalized into the cell and away from the plasma membrane following activation is also shown in Table 2 (mean n=2 independent experiments, +/−S.D). EC50 for each assay is defined as the concentration of the compound that leads to half of the maximum response (after baseline correction). […]
The agonist activity of compounds was determined using the GloSensor™ cAMP Assay (Promega Corp.), which measures changes in the intracellular concentration of cAMP after ligand activation of GPCRs. […] Binding to cAMP causes conformational changes that promote large increases in light output, which can be measured by a luminescence detector. […] The EC50 value was represented by the AC50 value calculated from Helios in μM. Emax is the maximal activity detected within the concentration range, derived from the fitted curve. […]

By UniProt entry, the sequences of proteins in these tests, tags left out. Residues count along the entry.
UniProt P43220, 24-463 limits assumed: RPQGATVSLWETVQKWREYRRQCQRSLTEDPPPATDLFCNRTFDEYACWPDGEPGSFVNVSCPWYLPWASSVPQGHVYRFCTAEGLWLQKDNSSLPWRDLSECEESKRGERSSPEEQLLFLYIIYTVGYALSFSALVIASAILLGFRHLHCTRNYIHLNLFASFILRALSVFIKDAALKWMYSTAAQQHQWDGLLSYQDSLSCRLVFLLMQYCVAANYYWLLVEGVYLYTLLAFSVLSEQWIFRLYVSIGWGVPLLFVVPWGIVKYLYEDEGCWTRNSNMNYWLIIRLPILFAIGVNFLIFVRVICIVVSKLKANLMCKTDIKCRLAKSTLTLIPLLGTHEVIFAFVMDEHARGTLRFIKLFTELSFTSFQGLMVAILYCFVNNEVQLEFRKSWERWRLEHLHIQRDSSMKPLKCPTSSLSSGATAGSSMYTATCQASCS

The target in the next assay is human GLP1R (Homo sapiens, UniProt P43220). The assay can be described thus: Human GLP1R DERET internalization assay. To be noted: HEK293-SNAP-hGLP1R-GloSensor cells.

This note sets out measurements from patent US20240182456A1, “2-((4-((S)-2-(4-CHLORO-2-FLUOROPHENYL)-2-METHYLBENZO[D][1,3]DIOXOL-4-YL)PIPERIDIN-1-YL)METHYL)-1-(((S)-OXETAN-2-YL)METHYL)-1H-IMIDAZOLE DERIVATIVES AS ACTIVATORS OF THE GLP1 RECEPTOR FOR THE TREATMENT OF OBESITY” (Novartis AG, priority 2021, published 2024).

The structures appear in SMILES notation.

The compound `Cc1nc(CN2CCC(c3cccc4c3OC(C)(c3ccc(Cl)cc3F)C4)CC2)n(C[C@@H]2CCO2)c1/C=C/C(=O)O` (single isomer, unassigned) yielded an Emax mean at human GLP1R (hGLP1R) (cAMP, normalized to GLP1(7-36) maximum response) of 104%. The EC50 on human GLP1R (hGLP1R) (read-out: EC50 mean, intracellular cAMP, mean n=3 where SEM is given) was 1.69 nM; on human GLP1R (read-out: DERET Internalization assay EC50 Mean, mean n=2), more than 30000 nM. Further, on human GLP1R (relative to GLP1(7-36)), the “DERET Internalization assay Emax” value is given as 2%.

By EC50 is commonly meant the concentration at which the effect is half-maximal.
